# Reference: patent publication EP2628479A1, “Cosmetic use of climbazol” (Henkel AG&Co. KGAA, priority 2011, dated 2013)
# Columns and labels:
# [1] = system: Co-Kultur-System; experiment: Collagen neosynthesis in co-culture system (2D fibroblast culture with 3D epidermis model insert), P1 NP secreted into the medium; format: cell-based
# Text: Zum Nachweis der Kollagen-Neusynthese wurde ein Co-Kultur-System verwendet, das aus einer zweidimensionalen Fibroblasten-Kultur besteht, auf die in einem Insert ein dreidimensionales Epidermismodell aufgesetzt wurde. Über das Nährmedium kann ein Stoffaustausch zwischen den Fibroblasten und den Keratinocyten des Epidermismodells erfolgen.
# Als Kontrollen für die Syntheseinduktion wurden Retinsäure und Retinol eingesetzt.
# [2] = system: CYP26A1; experiment: Identification as RAMBA: qPCR of CYP26A1 expression change in keratinocytes incubated with substance plus retinoic acid; details: in combination with Retinsäure; statement in words on Tabelle 1
smiles,measurement,setting,value
CC(=O)N1CCN(c2ccc(OCC3COC(Cn4ccnc4)(c4ccc(Cl)cc4Cl)O3)cc2)CC1 (stereo not drawn) [Ketokonazol],P1 NP,"[1]; Ketokonazol 50µM, unbehandelt = 107",196 µg/mL
same,Kollagensynthese,[1]; statement in words on Tabelle 2,Induktion der Kollagensynthese
same,Induktion von CYP26A1,[2],deutlich vermindert
